# Values quoted from earlier work as cited in patent US12065468B2, “Heme-binding small peptide” (priority 2021, dated 2024).
# Details: literature; read-out: KD for heme; cited from earlier work
substance,measurement,value
serum albumin: protein loosely binding labile heme,Kd,40 µM
